Laboratory results as given in patent US7071205B2 (Ligand Pharmaceuticals Incorporated, priority 2002, dated 2006).

Target: T1, hPR (Homo sapiens, UniProt P06401)
T1 sequence (P06401 1-933): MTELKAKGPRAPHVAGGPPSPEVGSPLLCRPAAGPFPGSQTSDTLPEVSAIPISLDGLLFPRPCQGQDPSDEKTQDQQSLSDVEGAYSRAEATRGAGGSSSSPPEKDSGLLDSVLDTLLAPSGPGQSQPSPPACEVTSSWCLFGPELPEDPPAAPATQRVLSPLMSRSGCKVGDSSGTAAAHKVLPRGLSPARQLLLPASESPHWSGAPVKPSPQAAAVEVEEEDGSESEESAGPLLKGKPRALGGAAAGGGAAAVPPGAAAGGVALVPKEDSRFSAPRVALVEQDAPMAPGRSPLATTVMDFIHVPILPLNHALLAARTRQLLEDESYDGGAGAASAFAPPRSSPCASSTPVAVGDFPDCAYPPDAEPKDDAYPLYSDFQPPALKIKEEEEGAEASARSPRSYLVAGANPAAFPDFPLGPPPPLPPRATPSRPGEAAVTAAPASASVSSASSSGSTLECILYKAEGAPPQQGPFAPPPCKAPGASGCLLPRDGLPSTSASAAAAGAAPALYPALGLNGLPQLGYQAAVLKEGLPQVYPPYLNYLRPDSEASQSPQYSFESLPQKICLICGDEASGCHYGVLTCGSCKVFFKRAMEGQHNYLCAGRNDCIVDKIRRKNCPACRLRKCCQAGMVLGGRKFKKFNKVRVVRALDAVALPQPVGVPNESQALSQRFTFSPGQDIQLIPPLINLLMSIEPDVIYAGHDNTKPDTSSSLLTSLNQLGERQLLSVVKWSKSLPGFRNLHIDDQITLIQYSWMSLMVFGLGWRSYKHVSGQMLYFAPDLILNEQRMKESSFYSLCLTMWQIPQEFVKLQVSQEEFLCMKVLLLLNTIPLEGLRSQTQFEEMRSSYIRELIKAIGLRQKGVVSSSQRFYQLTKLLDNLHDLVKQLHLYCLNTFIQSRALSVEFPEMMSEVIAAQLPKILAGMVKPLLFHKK
Experiment: Cotransfection assay, PR agonist activity in CV-1 cells
Assay type: cell-based
Settings: MTV-LUC reporter, percent maximal response relative to progesterone

CN(C)c1ccc([C@H]2C[C@]3(C)[C@@H](CC[C@]3(O)CCCO)[C@@H]3CCC4=CC(=O)CCC4=C32)cc1 [ZK299, reference compound]
PR Agonist CV-1 Cells Efficacy (%): na (na = not active (i.e. efficacy of <20 and potency of >10,000))
